# In PubChem BioAssay AID1117355 (Cheminformatics & Chemogenomics Research Group (CCRG), …, 2015):
# Chains of the proteins cited; added tags and fusions are not shown.
# UniProt P49841, whole entry, looked up: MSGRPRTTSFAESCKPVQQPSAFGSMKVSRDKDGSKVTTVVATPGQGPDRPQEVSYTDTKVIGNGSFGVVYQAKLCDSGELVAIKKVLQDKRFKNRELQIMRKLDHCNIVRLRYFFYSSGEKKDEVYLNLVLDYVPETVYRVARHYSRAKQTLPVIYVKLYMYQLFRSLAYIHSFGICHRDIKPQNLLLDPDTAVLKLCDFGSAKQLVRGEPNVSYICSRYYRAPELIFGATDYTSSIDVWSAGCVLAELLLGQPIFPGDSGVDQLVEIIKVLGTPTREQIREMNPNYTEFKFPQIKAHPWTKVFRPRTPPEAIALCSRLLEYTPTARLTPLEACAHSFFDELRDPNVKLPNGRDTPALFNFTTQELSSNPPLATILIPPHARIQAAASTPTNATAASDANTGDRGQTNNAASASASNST
# Activity calls are given as the source filed them. No rule for the calls is given here.
# Biological target: Glycogen synthase kinase-3 beta (Homo sapiens) (UniProt P49841)
# Assay: NPC library primary assay, GSK-3β enzyme inhibitors, biochemical, Homo sapiens, LANCE Ultra TR-FRET detection (AID 1117355)
# Conditions: LANCE Ultra TR-FRET kinase activity; at 20 µM (top of the series)
smiles,measurement,value
CN(CCCl)CCCl,inhibition,inactive: -3.27%
